Patent US10774053B2, “HIV protease inhibitors” (Gilead Sciences, Inc., priority 2017, dated 2020)

Legend:
recombinant HIV protease = recombinant HIV protease (Human immunodeficiency virus type 1 group M subtype B (isolate HXB2) (HIV-1), UniProt P04585); type: biochemical; conditions: fluorogenic enzymatic assay, read-out: HIV PI IC50
[1] = system: HIV-1 (IIIB) in MT-4 cells; test: microbe, parasite or virus in culture; type: cell-based; conditions: Human immunodeficiency virus 1, IIIB, MT4, read-out: MT4 EC50 (nM)

## CC(C)(C)C[C@]1(c2ccc(-c3cnn(C4COC4)c3)cc2)NC(=N)N([C@H](COC(=O)N2CC(F)(F)C2)c2ccc(Cl)c(-c3ncn[nH]3)c2)C1=O [Compound 100]
Recombinant HIV protease
  IC50: 2.5 nM
[1]
  EC50: 171 nM
